What was measured:
[1] = test system: CCK-2 receptor; experiment: Inhibition of the binding of [125I]-BH-CCK-8 to the cortical membrane of guinea pigs; conditions: IC50 CCK-2 (guinea pig cortex) / IC50 CCK-1 (rat pancreatic acini, Table 2)
Experimental: (§1) For this purpose binding tests were performed on cerebral cortex of male albino guinea pigs outbred from the Hartley strain, using as marked binder the [^125I]-BH-CCK-8 sulphate, according to the procedure described by Makovec F. [J. Med. Chem. 35, (1992),28].
(§2) The incubation of the cerebral membranes together with the radioactive tracers and the compounds under study was effected on multi-well plates for 120 minutes at 25° C. Each well contained membrane corresponding to about 0.5 mg of proteins/ml and 25 pM of marked binder in a total volume of 250 micro litres. The specific binding was determined as the difference between the binding in the absence and in the presence of CCK-8, 1.10^−6M. At the end of the incubation a rapid filtration of the plate was performed under vacuum and the radioactivity of the individual filters extracted from the wells was measured with a γ-emission counter. The results obtained are shown in Table 3, in which the tested compounds are indicated, the IC50 calculated with the regression method on a set of at least 3 tests for each compound studied and an index derived from the ratio of the affinity obtained for the two types of receptor CCK-2 and CCK-1.

By UniProt entry, the sequences of proteins in these tests, tags left out. Residues count along the entry.
UniProt H0VZC5, 1-426: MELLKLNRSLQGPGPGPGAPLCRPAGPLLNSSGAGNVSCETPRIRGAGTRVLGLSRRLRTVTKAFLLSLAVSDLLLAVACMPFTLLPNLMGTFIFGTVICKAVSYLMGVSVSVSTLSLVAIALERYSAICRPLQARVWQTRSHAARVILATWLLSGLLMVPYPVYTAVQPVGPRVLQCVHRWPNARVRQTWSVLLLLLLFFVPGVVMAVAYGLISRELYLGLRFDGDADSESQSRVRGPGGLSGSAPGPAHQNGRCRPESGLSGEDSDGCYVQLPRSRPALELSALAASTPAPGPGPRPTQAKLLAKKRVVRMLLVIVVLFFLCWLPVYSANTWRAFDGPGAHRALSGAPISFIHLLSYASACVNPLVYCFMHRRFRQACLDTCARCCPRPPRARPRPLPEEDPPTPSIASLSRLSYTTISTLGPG
UniProt P30551, whole entry: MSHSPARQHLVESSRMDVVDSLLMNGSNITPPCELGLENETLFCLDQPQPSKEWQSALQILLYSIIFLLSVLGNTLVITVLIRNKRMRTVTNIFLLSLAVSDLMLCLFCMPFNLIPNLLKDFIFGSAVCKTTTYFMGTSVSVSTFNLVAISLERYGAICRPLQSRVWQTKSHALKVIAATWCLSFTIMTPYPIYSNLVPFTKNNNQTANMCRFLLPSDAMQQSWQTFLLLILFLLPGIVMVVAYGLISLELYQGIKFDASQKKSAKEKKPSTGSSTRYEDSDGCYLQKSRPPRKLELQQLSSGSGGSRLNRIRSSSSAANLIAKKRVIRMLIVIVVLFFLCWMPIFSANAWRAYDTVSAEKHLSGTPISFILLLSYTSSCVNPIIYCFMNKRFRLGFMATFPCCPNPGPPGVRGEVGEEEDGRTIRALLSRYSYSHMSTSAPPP

[2] = biological target: CCK-2 receptor (Cavia porcellus, UniProt H0VZC5); experiment: as above; conditions: read-out: IC50, inhibition of the binding of [125I]-BH-CCK-8 to the cortical membrane of guinea pigs; 120 minutes at 25° C.; 25 pM marked binder; at least 3 tests
Experimental: as §1, §2

[3] = biological target: CCK-1 receptors (Rattus norvegicus, UniProt P30551); experiment: Inhibition of binding of [125I]-BH-CCK-8 to isolated rat pancreatic acini; conditions: read-out: IC50, inhibition of binding of [125I]-BH-CCK-8 to isolated rat pancreatic acini; 30 minutes at 37° C.; at least 3 experiments

`CCC(CC)CCC(NC(=O)c1ccccc1NC(=O)c1cc2ccccc2[nH]1)C(=O)O` (stereo not drawn) was tested, and the “index derived from the ratio of the affinity obtained for the two types of receptor CCK-2 and CCK-1” value [1] was 740, the IC50 [2] was 14.8 µM and the IC50 [3] was 20 nM.

From US7294648B2, “Anthranyl derivatives having an anticholecystokinin activity (anti-cck-1), a process for their preparation, and pharmaceutical use thereof” (Rottapharm S.p.A., priority 2002, dated 2007)
